In one data set the target is T1, human Y1 receptor (Homo sapiens, UniProt P25929).
T1 construct: expressed in transfected cells; host or cells: BHK-21 clone 6-482-8, IPTG-induced (membrane preparation)
In words: Scintillation proximity assay (SPA) receptor binding, Y1. As to conditions: read-out: Y1 Ki; membranes of BHK-21 cells, [125I]-PYY(1-36). On the procedure: (§1) The purpose of this example is to test the in vitro binding of the PYY compounds to the Y1, Y2, Y4 and Y5 receptor subtypes, respectively. The receptor binding affinity is a measure of affinity of a compound for the human Y1, Y2, Y4 and Y5 receptor subtypes, respectively.
(§2) Scintillation Proximity Assay (SPA)
(§3) NPY-Receptor Expressing Cell Lines.
(§4) All cells were cultured at +37° C. in a humidified atmosphere with 5% CO2. […] CHO-K1 cells stably expressing the human Y2 receptor (P49146, NPY2R_HUMAN, Uniprot) were cultured in DMEM F-12 with 10% FBS, 1% P/S, 150 μg/ml Hygromycin B and 10 μg/ml Puromycin antibiotic. CHO-K1 cells stably expressing the human Y4 receptor (P50391, NPY4R_HUMAN, Uniprot) were cultured in DMEM F-12 with 10% FBS, 1% P/S, 10 μg/ml Puromycin. HEK-293 cells stably expressing the human Y5 receptor (Q15761, NPY5R_HUMAN, Uniprot) were cultured in DMEM F-12 medium containing 10% FBS, 1% Penicillin-Streptomycin, 250 μg/ml G418 and 1 μg/ml puromycin. […]
(§5) Plates were sealed and incubated at +25° C. for 2 hours in a plate shaker set at 400 rpm and thereafter centrifuged at 1500 rpm for 10 minutes prior to reading of luminescence on a microplate scintillation and luminescence counter. […] Displacement of radioligand was measured as reduction in luminescence and IC50 values were calculated by nonlinear regression analysis of sigmoidal dose-response curves.

The chains behind the UniProt entries cited, without tags or fusion partners. Where a name states a change or a piece, a line headed by the entry shows the natural chain unless it says otherwise.
UniProt P25929, whole entry: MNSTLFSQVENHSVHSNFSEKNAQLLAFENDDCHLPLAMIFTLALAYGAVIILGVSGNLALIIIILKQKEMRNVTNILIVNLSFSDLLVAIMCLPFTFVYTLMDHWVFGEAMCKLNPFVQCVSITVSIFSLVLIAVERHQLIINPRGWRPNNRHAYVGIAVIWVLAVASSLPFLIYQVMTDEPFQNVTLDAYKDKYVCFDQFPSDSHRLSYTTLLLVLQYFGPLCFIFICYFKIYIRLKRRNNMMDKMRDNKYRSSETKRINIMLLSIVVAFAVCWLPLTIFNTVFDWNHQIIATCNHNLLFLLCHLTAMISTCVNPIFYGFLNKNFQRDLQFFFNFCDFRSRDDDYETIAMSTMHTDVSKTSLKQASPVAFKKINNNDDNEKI
UniProt P50391: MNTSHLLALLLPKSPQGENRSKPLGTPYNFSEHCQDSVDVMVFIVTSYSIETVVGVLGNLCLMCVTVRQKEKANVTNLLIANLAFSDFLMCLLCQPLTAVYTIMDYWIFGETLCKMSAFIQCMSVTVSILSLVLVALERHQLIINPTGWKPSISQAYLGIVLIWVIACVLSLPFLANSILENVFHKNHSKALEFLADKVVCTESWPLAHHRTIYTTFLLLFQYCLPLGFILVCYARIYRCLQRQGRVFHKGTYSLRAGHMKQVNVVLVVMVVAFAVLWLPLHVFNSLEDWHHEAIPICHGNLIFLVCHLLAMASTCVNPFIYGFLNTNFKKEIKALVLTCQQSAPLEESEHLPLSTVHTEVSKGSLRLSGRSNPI

A further data set has as its target T2, human Y4 receptor (Homo sapiens, UniProt P50391).
T2 construct: expressed in transfected cells; host or cells: CHO-K1 (membrane preparation)
Description: Scintillation proximity assay (SPA) receptor binding, Y4. Particulars: read-out: Y4 Ki; membranes of CHO-K1 cells, [125I]-Pancreatic Polypeptide. How it is done: as §1, §2, §3, §4, §5

Another data set has as its target T3, human Y5 receptor (Homo sapiens, UniProt Q15761).
T3 construct: expressed in transfected cells; host or cells: HEK-293 (membrane preparation)
T3 sequence (Q15761 1-445): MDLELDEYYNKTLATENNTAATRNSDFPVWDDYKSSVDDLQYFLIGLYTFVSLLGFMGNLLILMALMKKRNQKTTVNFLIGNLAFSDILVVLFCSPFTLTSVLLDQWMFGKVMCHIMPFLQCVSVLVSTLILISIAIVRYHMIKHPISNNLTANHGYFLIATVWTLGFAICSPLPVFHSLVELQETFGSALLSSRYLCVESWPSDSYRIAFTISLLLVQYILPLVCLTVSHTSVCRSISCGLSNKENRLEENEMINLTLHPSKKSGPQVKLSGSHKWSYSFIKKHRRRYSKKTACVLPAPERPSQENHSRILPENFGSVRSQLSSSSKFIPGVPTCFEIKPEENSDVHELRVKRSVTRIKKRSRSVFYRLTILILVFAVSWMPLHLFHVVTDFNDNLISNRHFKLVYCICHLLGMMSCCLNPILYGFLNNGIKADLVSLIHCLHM
Description: Scintillation proximity assay (SPA) receptor binding, Y5. Particulars: read-out: Y5 Ki; membranes of HEK-293 cells, [125I]-PYY(1-36). How it is done:
as §1, §2, §3, §4, §5

A short description of data set [1]: Pharmacokinetic study in minipigs after i.v. administration. The format is in vivo, Göttingen minipigs. As to conditions: terminal half-life, 15 nmol/kg. From the text:
By terminal half-life is generally meant the period of time it takes to halve a certain plasma concentration, measured after the initial distribution phase.
After minimum 2 weeks of acclimatization two permanent central venous catheters were implemented in vena cava caudalis in each animal. After surgery the animals were in their normal individual pens during the pharmacokinetic experiments.
On day 1 the catheters are coupled to extension tubes, which will be removed at the end of day 1. […] Samples were kept on wet ice until centrifugation (10 min, 4° C., 1942 g).
Plasma concentration-time profiles was analysed by a non-compartmental pharmacokinetics analysis using Phoenix (Pharsight Inc., Mountain View, Calif., USA). Calculations were performed using individual concentration-time values from each animal.

The source of these data is patent US10005824B2, “Selective PYY compounds and uses thereof” (Novo Nordisk A/S, priority 2015, dated 2018).

pKi: −log10 of the molar value.

Turning to “N{alpha-4}-(3-Methylbutanoyl)-N{Epsilon-7}-[2-[2-[2-[[2-[2-[2-[[(4S)-4-carboxy-4-(15-carboxypentadecanoylamino)butanoyl]amino]ethoxy]ethoxy]acetyl]-amino]ethoxy]ethoxy]acetyl]-[Arg4,Lys7,Gln18,Tyr28,Trp30,Leu31]-PYY(3-36) [Compound 63]”, the pKi on human Y1 receptor is less than 5.00; at human Y4 receptor, 5.24; at human Y5 receptor, 6.56. For the same substance, the “Half-life (t½)” value in data set [1] amounted to 30 h.

What is called pKi is the Ki on a negative log10 scale, so that one unit is a factor of ten.
